Experimental data as given in patent US11091546B2, “Optimized PNE-based chimeric receptor T cell switches and uses thereof” (The Scripps Research Institute, priority 2015, dated 2021).

Key:
[1] = system: Her2 ECD and anti-GCN4 CAR-T cells; experiment: Crosslinking (ternary complex) between anti-GCN4 CAR-T cells and Her2 ECD; assay type: binding; settings: mean of duplicates ± SD
[2] = system: MDA MB231 (Her2 1+); experiment: Binding of GCN4 tagged anti-Her2 fusions on breast cancer cells (flow cytometry)
Description: (§1) Replacing the long 45 amino acid CD8 hinge CAR region with a shorter 12 amino acid hinge derived from a dimeric mutant of the IgG4 hinge (IgG4m) improved anti-GCN4 sCAR-T cell activity in the context of targeting CD19 and CD20, putatively by reducing the overall distance between the sCAR-T cell and target cell (FIG. 44B). However, it is unknown if the increased activity of the IgG4m hinge can be extended to the Her2 antigen.

[3] = system: HCC1954 (Her2 3+); experiment: HCC1954 xenograft model; assay type: in vivo, NSG mice; settings: sCAR-T cells + 0.5 mg/kg every other day
Protocol: (§2) Ten days after cancer cell implantation in NSG mice, mice were i.v. injected with 30×10^6 CAR-T cells, followed by a dose of switch or wild type 4D5 Fab at 0.5 mg/kg every other day for 14 days. […] Tumor volume was calculated by W×L×H. Each data point represents tumor volume of five mice in each group. Error bars represent SD. Arrows indicate time of CAR-T cell injection or of treatment with specific antibodies.
(§3) FIGS. 42E-F show in vivo activity of sCAR-T cells with anti-HER2 switch. […] The experiments shown in FIG. 42E&F were conducted with 6 to 8-week-old female NSG mice. 5×10^6 of HCC1954 (HER2 3+) or MDA MB453 (HER2 2+) the human breast cancer cell lines in 50% Matrigel (BD Bioscience) were subcutaneously implanted into the right flank of mice. Ten days after tumor implantation, mice received 30×10^6 sCAR-T cells or the direct HER2 CAR-T cells (both with a transduction efficiency of 45-55%) via intra venous injection. […] Tumors were measured twice weekly using calipers. Tumor volume was calculated based on width×length×height.
(§4) To compare the in vivo antitumor ability of each optimized sCAR-T, their in vivo efficacies were evaluated in mouse xenograft models using Her2 3+ (HCC1954) and Her2 2+ (MDA MB453) breast tumors. […] Tumor growth was monitored for 50 days. […]

[4] = system: SKBR3 (Her2 3+); experiment: Binding of GCN4 tagged anti-Her2 fusions on breast cancer cells (flow cytometry)
Description: (§5) Bound switches were detected with an Alexa Fluor647 conjugated anti-human IgG (H+L) secondary antibody.
(§6) However, it is unknown if the increased activity of the IgG4m hinge can be extended to the Her2 antigen.

[5] = system: MDA MB468 (Her2 0); experiment: as above
Description: as §5, §6

[6] = system: MDA MB435 (Her2 1+); experiment: as above
Description: as §5, §6

[7] = system: MDA MB453 (Her2 2+); experiment: MDA MB453 xenograft model; assay type: in vivo, NSG mice; settings: sCAR-T cells + 0.5 mg/kg every other day
Protocol: as §2, §3, §4

[8] = system: GCN4 specific CAR-T cells; experiment: Binding of anti-Her2 GCN4 switches to anti-GCN4 sCAR-T cells (CD8 and IgG4m hinge)
Protocol: The location of the two N-terminal and two C-terminal positions that were grafted with the PNE (GCN4) are indicated by P1, P3 (N-terminal) and P2, P4 (C-terminal). […] FIG. 44C show the relative distances between bivalent sites on the CTBV switch, as modeled over the 4D5 Fab structure (Protein Data Bank ID 1N8Z). Distance were calculated with UCSF Chimera 1.10.2. […] Cells were incubated with indicated switches and detected with Alexa Fluor647 conjugated anti-human kappa chain antibody. The EC50 value was calculated with Graphpad Prism software.
Cells were incubated with indicated switches and detected with Alexa Fluor647 conjugated anti-human kappa chain antibody.
Next, the capacity of sCAR-T cells with CD8 or IgG4m hinges to bind their corresponding anti-Her2 switches was tested. The GCN4 switches were used to stain anti-GCN4 sCAR-T cells, and detected with an APC-labeled anti-human kappa-chain antibody specific for the constant region at the Fab. […] Together with the target cell binding assay, we confirmed that PNE grafted fusions reserved the binding specificity to the target cells as well as the tag recognition of 4D5-based switch by the sCAR-T cells.

[9] = system: MDA MB453 (Her2 2+); experiment: Binding of GCN4 tagged anti-Her2 fusions on breast cancer cells (flow cytometry)
Description: as §5, §1

[10] = Anti GCN4 CAR-EC with CD8 hinge
[11] = Anti-GCN4 CAR-EC with IgG4m hinge

Substance: anti-Her2 Fab HCNT: 4D5 anti-Her2 Fab, GCN4 on heavy chain N-terminus
- Maximal binding [1, 10]: 50.6 ± 2.4 MFI × 100
- Maximal binding [1, 11]: 46.6 ± 2.1 MFI × 100

Substance: anti-Her2 Fab NTBV: 4D5 anti-Her2 Fab, GCN4 on N-terminus of heavy and light chain
- Maximal binding [1, 10]: N.D./12.2 ± 1.1 MFI × 100
- Maximal binding [1, 11]: N.D./31.4 ± 0.3 MFI × 100

Substance: Anti-Her2 Fab: wild type anti-Her2 4D5 Fab without peptide graft [reference compound]
- MFI (mean fluorescence intensity) [2]: 424
- Relative Binding Index (MFI of indicated antibody/MFI of anti-CD19 Fab) [2]: 5
- tumor growth [3]: no effect on tumor growth
- MFI (mean fluorescence intensity) [4]: 14306
- Relative Binding Index (MFI of indicated antibody/MFI of anti-CD19 Fab) [4]: 95
- MFI (mean fluorescence intensity) [5]: 86
- MFI (mean fluorescence intensity) [6]: 245
- tumor growth [7]: no effect on tumor growth
- binding to sCAR-T cells [8]: failed to bind any sCAR-T cells
- MFI (mean fluorescence intensity) [9]: 8081
- Relative Binding Index (MFI of indicated antibody/MFI of anti-CD19 Fab) [9]: 55
- Maximal binding [1, 10]: N.D./2.9 ± 0.5 MFI × 100
- Maximal binding [1, 11]: N.D./1.6 ± 1.0 MFI × 100

Substance: anti-Her2 Fab HCCT: 4D5 anti-Her2 Fab, GCN4 on heavy chain C-terminus
- Maximal binding [1, 10]: 44.7 ± 3.1 MFI × 100
- Maximal binding [1, 11]: 57.4 ± 1.2 MFI × 100
